Tests used:
[1] = test system: Mus musculus; experiment: In vivo antitumor activity against P-388 leukemia in CDF1 mice at 64 mg or 166 umol by ip administration expressed as median survival time of drug treated mice/median survival time of control mice x100
[2] = test system: Mus musculus; experiment: In vivo antitumor activity against P-388 leukemia in CDF1 mice at 128 mg or 332 umol by ip administration expressed as average wt. change determined between day 0 and day 6 of experiment
[3] = test system: Mus musculus; experiment: In vivo antitumor activity against P-388 leukemia in CDF1 mice at 256 mg or 664 umol by ip administration expressed as median survival time of drug treated mice/median survival time of control mice x100
[4] = test system: Mus musculus; experiment: In vivo antitumor activity against P-388 leukemia in CDF1 mice at 32 mg or 83 umol by ip administration expressed as median survival time of drug treated mice/median survival time of control mice x100
[5] = test system: Mus musculus; experiment: In vivo antitumor activity against P-388 leukemia in CDF1 mice at 256 mg or 664 umol by ip administration expressed as average wt. change determined between day 0 and day 6 of experiment
[6] = test system: Mus musculus; experiment: In vivo antitumor activity against P-388 leukemia in CDF1 mice at 16 mg or 42 umol by ip administration expressed as average wt. change determined between day 0 and day 6 of experiment
[7] = test system: Mus musculus; experiment: In vivo antitumor activity against P-388 leukemia in CDF1 mice at 128 mg or 332 umol by ip administration expressed as median survival time of drug treated mice/median survival time of control mice x100
[8] = test system: Mus musculus; experiment: In vivo antitumor activity against P-388 leukemia in CDF1 mice at 16 mg or 42 umol by ip administration expressed as median survival time of drug treated mice/median survival time of control mice x100
[9] = test system: Mus musculus; experiment: In vivo antitumor activity against P-388 leukemia in CDF1 mice at 64 mg or 166 umol by ip administration expressed as average wt. change determined between day 0 and day 6 of experiment
[10] = test system: Mus musculus; experiment: In vivo antitumor activity against P-388 leukemia in CDF1 mice at 32 mg or 83 umol by ip administration expressed as average wt. change determined between day 0 and day 6 of experiment
[11] = test system: Mus musculus; experiment: In vivo antitumor activity against P-388 leukemia in CDF1 mice at 8 mg or 21 umol by ip administration expressed as median survival time of drug treated mice/median survival time of control mice x100
[12] = test system: Mus musculus; experiment: In vivo antitumor activity against P-388 leukemia in CDF1 mice at 8 mg or 21 umol by ip administration expressed as average wt. change determined between day 0 and day 6 of experiment

Which results are given for CC1(C)CN1P(=O)(NC(=O)NCCn1ccnc1[N+](=O)[O-])N1CC1(C)C (configuration not stated)?
T/C [1]: 111%; Average weight change [2]: -0.3 g; T/C [3]: 122%; T/C [4]: 100%; Average weight change [5]: -0.4 g; Average weight change [6]: -0.2 g; T/C [7]: 122%; T/C [8]: 111%; Average weight change [9]: 0.3 g; Average weight change [10]: 1.3 g; T/C [11]: 111%; Average weight change [12]: 0.2 g

From ChEMBL document CHEMBL1125669, “Synthesis of potential dual-acting radiation sensitizer antineoplastic agents: 2,2-dimethylphosphoraziridines containing 2-nitroimidazoles or other electron-affinic moieties” (1991)
